This note sets out measurements from PubChem BioAssay AID1863 (Southern Research Specialized Biocontainment Screening …, 2009).

The list shows a part of the results, in another mix than the full data. Results with a measured potency or affinity are listed apart. Some of these compounds have results that are not shown, active ones among them. Calls of active or inactive are those of the source.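 How the source made its calls: active means inhibition over 29.93%, a cutoff 3 SD above the screen mean, later confirmed by dose response; inconclusive means inhibition over 29.93% but no dose response follow-up; inactive means inhibition at most 29.93% or unconfirmed.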

A short description of the assay: inhibitors of PhoP regulon expression, primary screen, Salmonella Typhimurium, GFP reporter (AID 1863).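 Further: 0% = low Mg2+ inducing control and 100% = high Mg2+ repressing control.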 To be noted: S. Typhimurium PhoP-regulated promoter GFP reporter, 4 h; at 50 µM; hits give high values.
Turning to `CN(C)C1CCCC1OC(=O)C(O)(c1ccccc1)c1ccccc1` (centres undefined), the inhibition was inactive: -2.99%.

Take `CN(C)c1ccc(C(=O)NCC2(N(C)C)CCCCC2)cc1`: the inhibition was inactive: 2.18%.

With `Cc1ccccc1C(=O)NCC1(N2CCCCC2)CCCCC1`, the inhibition was inactive: 3.7%.

As to `O=C(NCC1(N2CCCCC2)CCCCC1)c1cccc(Br)c1`, the inhibition is inactive: -0.4%.

Regarding `Cc1cc(C(=O)NCC2(N3CCCCC3)CCCCC2)ccc1[N+](=O)[O-]`, the inhibition was inactive: 5%.

Regarding `CCN1CCCC(OC(=O)C2(O)c3ccccc3C=Cc3ccccc32)C1` (centres undefined), the inhibition was inactive: -4.11%.

Consider `COc1ccc(C(=O)NCC2(N(C)C)CCCCC2)cc1`, for which the inhibition is inactive: 0.31%.

For the compound `O=C(NCC1(N2CCCCC2)CCCCC1)c1cc(F)c(F)cc1Cl`, the inhibition was inactive: 0.79%.

Take `C=CCN1CCN(CCOC(=O)C(O)(c2ccccc2)c2ccccc2)CC1`: the inhibition was inactive: -2.32%.

As to `CN1[C@@H]2CC[C@H]1CC(OC(=O)C(O)(c1ccccc1)c1ccccc1)C2` (some centres undefined), the inhibition is inactive: -2.41%.

As to `O=C(NCC1(N2CCCCC2)CCCCC1)c1cc([N+](=O)[O-])ccc1Cl`, the inhibition was inactive: -2.75%.

`Cc1ccc(C(=O)NCC2(N3CCCCC3)CCCCC2)cc1`: the inhibition was inactive: -2.25%.

In the case of `CC(C)N1C(=O)CC2(CCN(CCOC(=O)C(O)(c3ccccc3)c3ccccc3)CC2)C1=O`, the inhibition is inactive: -7.53%.

As to `COc1cc(SC)ccc1C(=O)NCC1(N(C)C)CCCCC1`, the inhibition is inactive: 6.99%.

On to `CCN(CC)CC(C)C(C)OC(=O)C(O)(c1ccccc1)c1ccccc1` (centres undefined), for which the inhibition was inactive: -13.2%.

`O=C(OC1CN2CCC1CC2)C(CO)(c1ccccc1)c1ccccc1` (centres undefined): the inhibition is inactive: -0.98%.

For the compound `CN(C)c1cccc(C(=O)NCC2(N(C)C)CCCCC2)c1`, the inhibition was inactive: -6.53%.

Regarding `CC(C)Oc1ccc(C(=O)NCC2(N(C)C)CCCCC2)cc1`, the inhibition was inactive: -0.71%.

`COc1ccc(Br)c(C(=O)NCC2(N3CCCCC3)CCCCC2)c1`: the inhibition was inactive: -8.7%.

On to `COc1cc(C(=O)NCC2(N(C)C)CCCCC2)c([N+](=O)[O-])cc1OC`, for which the inhibition is inactive: 7.41%.

On to `CN(C)C1(CNC(=O)c2ccc(Br)cc2)CCCCC1`, for which the inhibition was inactive: -4.24%.

Take `O=C(NCC1(N2CCCCC2)CCCCC1)c1cccc(Cl)c1`: the inhibition is inactive: -0.37%.

Regarding `COc1ccc(Cl)cc1C(=O)NCC1(N(C)C)CCCCC1`, the inhibition is inactive: 5.61%.

For `COc1cccc(C(=O)NCC2(N3CCCCC3)CCCCC2)c1`, the inhibition was inactive: -1.69%.
